ChEMBL document CHEMBL5260804, “Affinity of Rimantadine Enantiomers against Influenza A/M2 Protein Revisited” (ACS Med Chem Lett, 2017)

Sequences of proteins named here, by UniProt entry; tags and fusion partners are left off.
UniProt P06821, whole entry: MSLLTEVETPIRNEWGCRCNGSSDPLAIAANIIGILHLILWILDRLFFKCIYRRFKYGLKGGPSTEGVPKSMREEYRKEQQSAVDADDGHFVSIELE

Target: Matrix protein 2 (Influenza A virus) (UniProt P06821)
Details: A/Udorn/72 (H3N2)

SMILES	deltaG [kcal/mol]
C[C@H](N)C12CC3CC(CC(C3)C1)C2	-8.88
CC(N)C12CC3CC(CC(C3)C1)C2 (racemic) [RIMANTADINE]	-8.64
